# Measured affinities in a library of Ab-91 heavy chain variants

All variants were tested on one target, the spike HR2 peptide PDVDLGDISGINAS (SARS-CoV-2).

Parent scFv Ab-91: VL joined to VH by the linker GGGGSGGGGSGGGGS. Changes lie in the heavy chain CDRs alone.
VL: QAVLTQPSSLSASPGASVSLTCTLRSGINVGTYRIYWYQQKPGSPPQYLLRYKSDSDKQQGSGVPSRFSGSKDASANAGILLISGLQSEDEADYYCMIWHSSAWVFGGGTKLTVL
VH: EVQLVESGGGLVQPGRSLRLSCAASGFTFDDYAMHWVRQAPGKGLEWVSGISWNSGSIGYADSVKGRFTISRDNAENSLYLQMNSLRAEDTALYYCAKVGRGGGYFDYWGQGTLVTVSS

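The library (AAYL51) carries one to three amino acid substitutions per variant, with no insertions or deletions. In AlphaSeq, yeast of one mating type display the scFv and yeast of the other type display the target. Mating (16 h, 30 °C) was followed by selection of diploids and sequencing of their barcodes. Each replicate has its own calibration line, from reference interactions of the BCL2 family. The assay was run in three technical replicates.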

The parent's heavy chain CDRs are GFTFDDYAMH, GISWNSGSIGYADSVK, VGRGGGYFDY; each variant's own CDRs replace them letter for letter. Values are log10 of the apparent Kd in nM; lower means stronger binding. The mean shown is taken over the replicates in which the pair was detected. An entry "nd" has no value in the source: the pair was not observed among the diploids in any replicate. This suggests poor binding but is not conclusive. Order: sorted from the lowest average up, undetected variants last. Nonspecific signal, from three strains lacking the peptide, appeared in 21% of pairings of library AAYL51, centred on 4.54 (5% of these signals below 3.26); values are not corrected for it. Also given: how often the same scFv was detected with the empty control strains. Parent in this assay: reference entry 1.86, copy in this library 0.88.

CDR-H1	CDR-H2	CDR-H3	mean log10 Kd (nM)	seen in	signal with controls
GFTFDDYSMH	GISWNSGSIGYADSVK	VGRGGGYLDY	0.75	3 of 3	2 of 9
GFTFDDYAMH	GISWNSGSIGYADSVK	VVRGGGLLDY	0.76	3 of 3	2 of 9
GFKFDDYAMH	GISMNSFSIGYADSVK	VGRGGGYFDY	0.90	3 of 3	2 of 9
GFTFDDYAMH	GISWNSGSIGYQDSVK	VGCVGGYFDY	1.07	3 of 3	3 of 9
GFTFDDYAMH	GISANSGSIGYADSVY	VGRGGYYFDY	1.18	3 of 3	3 of 9
GFTTDDYAMH	GISWNSGQIGYADSVK	VGRGGGYFDA	1.22	3 of 3	1 of 9
GFNFPDYAMH	GISWNSGYIGYADSVK	VGRGGGYFDY	1.53	3 of 3	1 of 9
GFTFDCYAMH	GISWNSGSIGYGDSVK	VGRGGGYFDY	2.06	3 of 3	0 of 9
GFTFDDWAMA	GISWNSGSIGYACSVK	VGRGGGYFDY	2.11	3 of 3	0 of 9
GFTFDDYAMH	GISWNSGSIGYADSVK	VERGSGYWDY	2.16	3 of 3	1 of 9
GFTFDDYAMH	GISWNSGDIGYADSVR	VGGGGGYFDY	2.21	3 of 3	1 of 9
GFWFDDYAMH	GISWNSGSIGYADSVT	VGRGGGYFDY	2.28	3 of 3	3 of 9
GFTFDDYAMH	GISKNSGSIGYADDVK	VGRLGGYFDY	2.87	3 of 3	6 of 9
PFTFDDYAMH	GISWNSGSTGYADSVK	VGRGVGYFDY	3.55	1 of 3	0 of 9
GFTFDDYAMH	LISWNSGSIGYADSSK	VGRGGGYFVY	3.72	1 of 3	0 of 9
YFEFDDYAMH	GISWNSGSIGYADSVK	VGRGGGYFDP	3.72	3 of 3	1 of 9
GFFFDDYAMH	GISWNSGSFGYADSVK	VGRGCGYFDY	3.78	1 of 3	0 of 9
GFTFDMYAMH	GISWNSGSIGYADSVK	VGRGGGYFKY	3.95	3 of 3	0 of 9
GFTFKDYKMH	GISWNSGSIGYADSVK	VGRGVGYFDY	3.95	1 of 3	1 of 9
GFTFDDYAMH	GISWNDGSIGYADSVK	VGQGGGYFDY	3.96	3 of 3	5 of 9
GFTFDDYADH	GISWNSGSIGYADSVK	VHRGGGYFAY	3.97	1 of 3	2 of 9
GFTFDDYAMH	DISRNSGSIGYADSVK	VGRGGGYTDY	4.00	1 of 3	0 of 9
GFSFQDYAMH	FISWNSGSIGYADSVK	VGRGGGYFDY	4.04	2 of 3	1 of 9
GFTFDDYAMH	GISWNSGSIYYADSVK	VWRGGGYFRY	4.08	1 of 3	2 of 9
GFTYDDYAMH	GISWNSGSIVYQDSVK	VGRGGGYFDY	4.09	1 of 3	0 of 9
GFTFDDYAMH	GISWNSGSRGYADSVH	VGRMGGYFDY	4.10	2 of 3	4 of 9
GFTFDDYAMH	GISWNSGSIGNADSVK	VGHGGGYFDH	4.15	3 of 3	4 of 9
GFTFDDYAMH	GISWNSGSIGSDDSVK	RGRGGGYFDY	4.19	1 of 3	0 of 9
GFTRDEYAMH	GISWNSGSIGYADYVK	VGRGGGYFDY	4.30	1 of 3	1 of 9
GFTFDDYAMH	GISWNSGSRGYADSVK	VGRGHGYFDS	4.32	3 of 3	4 of 9
GKWFDDYAMH	GISWNSGSIGYAISVK	VGRGGGYFDY	4.50	1 of 3	2 of 9
GFLFDWYAMH	SISWNSGSIGYADSVK	VGRGGGYFDY	4.51	2 of 3	6 of 9
GFRFDDIAMH	GISWNSGSIGYADSVK	VGRGGPYFDY	4.54	1 of 3	1 of 9
GFTFDRYAMH	GISWNEGSIGYADSVK	VGRGCGYFDY	4.55	1 of 3	0 of 9
GFTFDPYADH	GISWNSGSIGYADSVK	VGRGGGYFCY	4.57	2 of 3	6 of 9
GITFDDYAMH	GYSWNSGSITYADSVK	VGRGGGYFDY	4.62	1 of 3	1 of 9
GFTVDDYAMH	GISWNSGSIGYADSVK	VGRGIGYFDY	4.79	2 of 3	1 of 9
GFTFDDYAMH	GISLNSGSIGYADLVK	VGRGKGYFDY	4.88	3 of 3	5 of 9
GFTFDDYAMH	GISWNWGSIGYPDVVK	VGRGGGYFDY	4.94	3 of 3	3 of 9
GFTWDDYAMH	GFSWNSGSIGYADSVK	VGRNGGYFDY	4.98	3 of 3	5 of 9
RFTFDDYAMH	GISKNSGSIGYADSVK	VGRGGHYFDY	5.09	2 of 3	4 of 9
GFTFFDYAMH	GISWNSGSIGYADSVP	VGAGGGYFDY	5.15	3 of 3	1 of 9
GFTFDDYAMH	GIGWNSGSIGYRSSVK	VGRGGGYFDY	5.24	1 of 3	0 of 9
GFTFDDYAME	GISWNSGSIGYADSVK	VVRGMGYFDY	5.29	3 of 3	5 of 9
GFTFDDYAMH	GISWNSGSKGYADSVK	VTRGGGYFDM	5.36	3 of 3	3 of 9
GFTFDDYADH	GISWNSCSIGYADFVK	VGRGGGYFDY	5.53	3 of 3	3 of 9
GFLFDDSAMH	GILWNSGSIGYADSVK	VGRGGGYFDY	5.78	1 of 3	2 of 9
GFTFDDYAMH	GISWTSGSIGYADSVK	VGRGPGMFDY	5.81	1 of 3	1 of 9
GFTFDDYAMH	GDSWNSGSIGYADSVF	VGRGGGYFDY	5.81	1 of 3	1 of 9
GFTEDDYAMH	GISWNSGSIGYAQSVQ	VGRGGGYFDY	5.85	1 of 3	0 of 9
GFTFDDYAMH	GIQLNSGSIGYADSVK	VGRGGGYFAY	6.06	1 of 3	1 of 9
GFTFDDYEMH	GISWNMGSIGYADSVK	VKRGGGYFDY	6.13	1 of 3	4 of 9
GFTFDDYAMH	GIPWNSGSSGYADSVK	VGRFGGYFDY	nd	0 of 3	2 of 9
YFTDDDYAMH	GISWNSGSIGVADSVK	VGRGGGYFDY	nd	0 of 3	0 of 9
GFTIDDYRMH	GISWNSGSIGYADSVF	VGRGGGYFDY	nd	0 of 3	0 of 9
GFTFDDYAMH	GISWNSRIIGYADSVK	FGRGGGYFDY	nd	0 of 3	1 of 9
WFTFDDYAMH	VISWNSGSIGYADSVK	CGRGGGYFDY	nd	0 of 3	3 of 9
GFTFDDYAMH	GISWNSGSINYADSVK	VQRGMGYFDY	nd	0 of 3	3 of 9
GFTFDDYAQH	GISWNSGSIGYADSVK	VGRGGHFFDY	nd	0 of 3	1 of 9
IFTFDYYAMH	GISQNSGSIGYADSVK	VGRGGGYFDY	nd	0 of 3	2 of 9
GFTFDEYAMD	GISWNSGSIGYADSVK	VGRGPGYFDY	nd	0 of 3	2 of 9
GFTFDDYAMH	GISWMSGSIFYSDSVK	VGRGGGYFDY	nd	0 of 3	4 of 9
GFTFDDYAKH	GISWNSGSIGYCDSVE	VGRGGGYFDY	nd	0 of 3	0 of 9
GFTFDDYAMH	AISLNSGSIGLADSVK	VGRGGGYFDY	nd	0 of 3	0 of 9
GGTFDDYAMH	GISWESGSIGYADYVK	VGRGGGYFDY	nd	0 of 3	0 of 9
WFTFDTYAMH	GIYWNSGSIGYADSVK	VGRGGGYFDY	nd	0 of 3	0 of 9
GFTFDDYAMH	GISWNSLSIGYVDSVK	VGRGGRYFDY	nd	0 of 3	3 of 9
GFPFDDYAQH	KISWNSGSIGYADSVK	VGRGGGYFDY	nd	0 of 3	0 of 9
GFTFDDGAMH	GISWNSASIGYADSVK	VLRGGGYFDY	nd	0 of 3	0 of 9
GFTFDDYAMH	GIRWNSGSIGYADSVK	VGRGGRYFFY	nd	0 of 3	0 of 9
GFTFDLYAMG	GISWNSGSIGYADSVK	VGRGGGYPDY	nd	0 of 3	0 of 9
GFTFDDYAAH	GISWNSGSIGYADAVK	VGRGGGNFDY	nd	0 of 3	1 of 9
GFTFDDYAMH	GAKWNSGSIGYADSVK	VMRGGGYFDY	nd	0 of 3	1 of 9
LFTFDYYAMH	GISWNSGSIGYADSVK	VGRGGGYGDY	nd	0 of 3	0 of 9
DFTFDDYAMH	GISWNSGKIGYADSVK	VGRGGGYTDY	nd	0 of 3	0 of 9
GFTFDDYAMC	DISWNSGIIGYADSVK	VGRGGGYFDY	nd	0 of 3	0 of 9
GFTFDDYAMH	GISWNSGSIGYADSVI	VGRGGGWFDY	nd	0 of 3	0 of 9
GFTFDDYANH	GISWNSGSIGNADSVK	VGLGGGYFDY	nd	0 of 3	2 of 9

Picked from the list: the 8 lowest averages where every replicate gave a value.

CDR-H1	CDR-H2	CDR-H3	mean log10 Kd (nM)	seen in	signal with controls
GFTFDDYSMH	GISWNSGSIGYADSVK	VGRGGGYLDY	0.75	3 of 3	2 of 9
GFTFDDYAMH	GISWNSGSIGYADSVK	VVRGGGLLDY	0.76	3 of 3	2 of 9
GFKFDDYAMH	GISMNSFSIGYADSVK	VGRGGGYFDY	0.90	3 of 3	2 of 9
GFTFDDYAMH	GISWNSGSIGYQDSVK	VGCVGGYFDY	1.07	3 of 3	3 of 9
GFTFDDYAMH	GISANSGSIGYADSVY	VGRGGYYFDY	1.18	3 of 3	3 of 9
GFTTDDYAMH	GISWNSGQIGYADSVK	VGRGGGYFDA	1.22	3 of 3	1 of 9
GFNFPDYAMH	GISWNSGYIGYADSVK	VGRGGGYFDY	1.53	3 of 3	1 of 9
GFTFDCYAMH	GISWNSGSIGYGDSVK	VGRGGGYFDY	2.06	3 of 3	0 of 9

From the AlphaSeq antibody data of Engelhart et al. 2022 (doi:10.1038/s41597-022-01779-4), copy in the FLAb collection.